Source: PubChem BioAssay (NCI)
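These data come from cells grown in 96-well plates and exposed to compound for 48 hours at five concentrations. GI50: concentration for 50% inhibition of growth. TGI: total growth inhibition.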

Key:
Experiment in all cases: NCI anticancer screen, dose series, 48 h
[1] = system: RXF 393 renal
[2] = system: COLO 205 colon
[3] = system: BT-549 breast
[4] = system: PC-3 prostate
[5] = system: HOP-92 NSCLC
[6] = system: HOP-62 NSCLC
[7] = system: HS 578T breast
[8] = system: SK-OV-3 ovarian
[9] = system: MALME-3M melanoma
[10] = system: NCI-H522 lung
[11] = system: MDA-N
[12] = system: SNB-19 CNS
[13] = system: HCC-2998 colon
[14] = system: LOX IMVI melanoma
[15] = system: CAKI-1 renal
[16] = system: NCI-H322M lung
[17] = system: U251 CNS
[18] = system: SW-620 colon
[19] = system: MDA-MB-435
[20] = system: SK-MEL-5 melanoma
[21] = system: T-47D breast
[22] = system: UACC-62 melanoma
[23] = system: M14 melanoma
[24] = system: UACC-257 melanoma
[25] = system: SF-539 CNS
[26] = system: NCI/ADR-RES ovarian
[27] = system: CCRF-CEM leukemia
[28] = system: NCI-H23 lung
[29] = system: SF-268 CNS
[30] = system: 786-0 renal
[31] = system: ACHN renal
[32] = system: SN12C renal
[33] = system: SF-295 CNS
[34] = system: TK-10 renal
[35] = system: HCT-15 colon
[36] = system: NCI-H460 lung
[37] = system: UO-31 renal
[38] = system: SK-MEL-2 melanoma
[39] = system: RPMI-8226 leukemia
[40] = system: A549 NSCLC
[41] = system: MCF7 breast
[42] = system: NCI-H226 lung
[43] = system: HT29 colon
[44] = system: DU-145 prostate
[45] = system: EKVX NSCLC
[46] = system: KM12 colon
[47] = system: A498 renal
[48] = system: MDA-MB-231 breast
[49] = system: HCT-116 colon
[50] = system: OVCAR-3 ovarian
[51] = system: OVCAR-8 ovarian

`O=[N+]([O-])c1cc([N+](=O)[O-])c2nsnc2c1` gave a GI50 [1] of 5.46 µM, a TGI [1] of 18.4 µM and a GI50 [2] of 8.15 µM. It also gave a TGI [2] of 20.3 µM, a GI50 [3] of 16.3 µM and a TGI [3] of 30.5 µM. It also gave a GI50 [4] of 15.5 µM, a TGI [4] of 32.6 µM and a GI50 [5] of 20.3 µM. The TGI [5] was 35.6 µM, the GI50 [6] was 21.3 µM and the TGI [6] was 37.7 µM. For the same compound, the GI50 [7] was 23.6 µM, the TGI [7] was 44 µM and the GI50 [8] was 18.8 µM. The TGI [8] was 32.8 µM, the GI50 [9] was 19.4 µM and the TGI [9] was 35 µM. The GI50 [10] was 1.73 µM, the TGI [10] was 3.39 µM and the GI50 [11] was 15 µM. The TGI [11] was 28.2 µM, the GI50 [12] was 20 µM and the TGI [12] was 34.2 µM. For the same compound, the GI50 [13] was 19.7 µM, the TGI [13] was 35.9 µM and the GI50 [14] was 1.8 µM. For the same compound, the TGI [14] was 4.51 µM, the GI50 [15] was 8.73 µM and the TGI [15] was 22 µM. The GI50 [16] was 23.8 µM, the TGI [16] was 40.4 µM and the GI50 [17] was 18.2 µM. The TGI [17] was 32.3 µM, the GI50 [18] was 2.72 µM and the TGI [18] was 9.46 µM. It also gave a GI50 [19] of 19.8 µM, a TGI [19] of 34.7 µM and a GI50 [20] of 15.6 µM. For the same compound, the TGI [20] was 29 µM, the GI50 [21] was 2.56 µM and the TGI [21] was 7.19 µM. The GI50 [22] was 13.6 µM, the TGI [22] was 28 µM and the GI50 [23] was 13.7 µM. It also gave a TGI [23] of 28.3 µM, a GI50 [24] of 17 µM and a TGI [24] of 30.7 µM. The GI50 [25] was 2.2 µM, the TGI [25] was 4.81 µM and the GI50 [26] was 17.1 µM. It also gave a TGI [26] of 33.6 µM, a GI50 [27] of 1.92 µM and a TGI [27] of 4.95 µM. For the same compound, the GI50 [28] was 17 µM, the TGI [28] was 35 µM and the GI50 [29] was 16.3 µM. It also gave a TGI [29] of 30 µM, a GI50 [30] of 2.68 µM and a TGI [30] of 9.86 µM. The GI50 [31] was 3.3 µM, the TGI [31] was 9.97 µM and the GI50 [32] was 16.4 µM. The TGI [32] was 33.6 µM, the GI50 [33] was 23.2 µM and the TGI [33] was 42.9 µM. It also gave a GI50 [34] of 5.68 µM, a TGI [34] of 16.1 µM and a GI50 [35] of 8.31 µM. It also gave a TGI [35] of 21.5 µM, a GI50 [36] of 17.8 µM and a TGI [36] of 33 µM. For the same compound, the GI50 [37] was 4.63 µM, the TGI [37] was 17.7 µM and the GI50 [38] was 17.1 µM. It also gave a TGI [38] of 33.9 µM, a GI50 [39] of 2.25 µM and a TGI [39] of 5.8 µM. It also gave a GI50 [40] of 20.7 µM, a TGI [40] of 39.1 µM and a GI50 [41] of 2.14 µM. For the same compound, the TGI [41] was 5.74 µM, the GI50 [42] was 3.13 µM and the TGI [42] was 14.9 µM. For the same compound, the GI50 [43] was 18.9 µM, the TGI [43] was 33.8 µM and the GI50 [44] was 16.7 µM. The TGI [44] was 31.4 µM, the GI50 [45] was 20.9 µM and the TGI [45] was 37.7 µM. The GI50 [46] was 19.3 µM, the TGI [46] was 35.5 µM and the GI50 [47] was 19.3 µM. It also gave a TGI [47] of 36.4 µM, a GI50 [48] of 18.6 µM and a TGI [48] of 34.7 µM. The GI50 [49] was 2.67 µM, the TGI [49] was 10.4 µM and the GI50 [50] was 4.68 µM. For the same compound, the TGI [50] was 27.2 µM, the GI50 [51] was 15.8 µM and the TGI [51] was 30.3 µM.
